Earlier results as cited in article PMC10349193 (CPT: Pharmacometrics & Systems Pharmacology, 2023).

Experiments:
[1] = single adjusting compartment; ref SimCYP library version 19; cited from earlier work
Caco-2 = conditions: pH 6.5: pH 7.4, Passive; rifampicin file with reference compound; ref SimCYP library version 19; cited from earlier work

## CO[C@H]1/C=C/O[C@@]2(C)Oc3c(C)c(O)c4c(O)c(c(/C=N/N5CCN(C)CC5)c(O)c4c3C2=O)NC(=O)/C(C)=C\C=C\[C@H](C)[C@H](O)[C@@H](C)[C@@H](O)[C@@H](C)[C@H](OC(C)=O)[C@@H]1C [Rifampicin]
[1]
  Volume [Vsac]: 1e-05 L/kg
Caco-2
  Caco-2 Papp: 15 10^-6 cm/s
